Test results taken from US20250195530A1, “POLQ INHIBITORS” (ASTRAZENECA AB, priority 2022, published 2025).

Protein sequences, listed by entry. Tags and fused reporters are not part of them. Residues count along the entry.
UniProt O75417, 1780-2590: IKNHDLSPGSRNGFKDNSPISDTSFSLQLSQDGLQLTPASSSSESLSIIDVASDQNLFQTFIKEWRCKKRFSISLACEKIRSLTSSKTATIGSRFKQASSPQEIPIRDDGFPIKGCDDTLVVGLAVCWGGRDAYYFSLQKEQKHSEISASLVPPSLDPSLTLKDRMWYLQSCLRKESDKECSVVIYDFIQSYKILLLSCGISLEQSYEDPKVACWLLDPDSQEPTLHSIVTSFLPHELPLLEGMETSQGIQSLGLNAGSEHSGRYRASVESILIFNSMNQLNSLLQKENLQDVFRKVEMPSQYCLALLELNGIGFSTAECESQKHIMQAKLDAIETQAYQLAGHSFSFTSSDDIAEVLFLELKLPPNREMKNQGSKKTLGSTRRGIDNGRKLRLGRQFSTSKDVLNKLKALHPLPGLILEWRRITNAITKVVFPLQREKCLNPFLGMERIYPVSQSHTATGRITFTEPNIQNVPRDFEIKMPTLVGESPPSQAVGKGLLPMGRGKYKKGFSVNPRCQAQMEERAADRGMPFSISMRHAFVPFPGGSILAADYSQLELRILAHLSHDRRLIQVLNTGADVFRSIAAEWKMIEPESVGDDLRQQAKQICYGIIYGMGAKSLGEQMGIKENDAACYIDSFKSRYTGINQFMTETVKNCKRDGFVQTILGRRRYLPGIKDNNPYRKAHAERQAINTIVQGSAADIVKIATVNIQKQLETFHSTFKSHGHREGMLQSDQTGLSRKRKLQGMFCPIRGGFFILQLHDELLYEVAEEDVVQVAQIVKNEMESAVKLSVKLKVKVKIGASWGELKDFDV

Target: isolated polymerase domain (I1780-V2590) of DNA polymerase theta (Polθ) (Homo sapiens (Human), UniProt O75417)

IC50 [nM]	Compound
2	Cc1cc(OCCN2CCNCC2)ncc1-c1nc2c(OC3(C)CC3)ncnc2n1Cc1cccc(Cl)c1 [Example J6, 9-(3-chlorobenzyl)-8-(4-methyl-6-(2-(piperazin-1-yl)ethoxy)pyridin-3-yl)-6-(1-methylcyclopropoxy)-9H-purine]
5.01	CC1(Oc2ncnc3c2nc(-c2ccc(/C=C/C(=O)O)cc2Cl)n3Cc2ccccc2)CC1 [Example M4, (E)-3-(4-(9-benzyl-6-(1-methylcyclopropoxy)-9H-purin-8-yl)-3-chlorophenyl)acrylic acid]
7.94	Cc1c(OCCN2CCNCC2)cncc1-c1nc2c(OC3(C)CC3)ncnc2n1Cc1ccccc1 [Example 22, 9-Benzyl-8-(4-methyl-5-(2-(piperazin-1-yl)ethoxy)pyridin-3-yl)-6-(1-methylcyclopropoxy)-9H-purine]
2.51	C[C@H]1C(=O)NCCN1CCOc1ccc(-c2nc3c(OC4(C)CC4)ncnc3n2Cc2ccccc2)c(Cl)c1 [Example H19, (S)-4-(2-(4-(9-benzyl-6-(1-methylcyclopropoxy)-9H-purin-8-yl)-3-chlorophenoxy)ethyl)-3-methylpiperazin-2-one]
7.94	CCCCCCC(=O)NCCCOc1ccc(-c2nc3cc(OC(C)C)ccc3n2Cc2ccccc2)c(Cl)c1 [Example A4, N-(3-(4-(1-benzyl-5-isopropoxy-1H-benzo[d]imidazol-2-yl)-3-chlorophenoxy)propyl)heptanamide]
12.6	CN1CCN(CCOc2ccc(-c3nc4c(OC5(C)CC5)ncnc4n3Cc3ncccn3)c(Cl)c2)CC1 [Example E6, 8-(2-chloro-4-(2-(4-methylpiperazin-1-yl)ethoxy)phenyl)-6-(1-methylcyclopropoxy)-9-(pyrimidin-2-ylmethyl)-9H-purine]
3.98	CC1(Oc2ncnc3c2nc(-c2cccc(O[C@H]4C[C@@H](C(=O)O)C4)c2Cl)n3Cc2cc(Cl)ccc2C#N)CC1 [Example U84, (1s,3s)-3-(2-chloro-3-(9-(5-chloro-2-cyanobenzyl)-6-(1-methylcyclopropoxy)-9H-purin-8-yl)phenoxy)cyclobutane-1-carboxylic acid]
3.98	Cc1cc(OC[C@H]2COCCN2)ncc1-c1nc2c(OC3(C)CC3)ncnc2n1Cc1ccccc1 [Example G16, (R)-3-(((5-(9-benzyl-6-(1-methylcyclopropoxy)-9H-purin-8-yl)-4-methylpyridin-2-yl)oxy)methyl)morpholine]
5.01	CC1(Oc2ncnc3c2nc(-c2ccc(OCCNC(=O)CO)cc2Cl)n3Cc2ccccc2)CC1 [Example D26, N-(2-(4-(9-benzyl-6-(1-methylcyclopropoxy)-9H-purin-8-yl)-3-chlorophenoxy)ethyl)-2-hydroxyacetamide]
2.51	CN1CCN(CCOc2ccc(-c3nc4c(OC5(C)CC5)ncnc4n3Cc3ccccc3Cl)c(Cl)c2)CC1 [Example E1, 8-(2-chloro-4-(2-(4-methylpiperazin-1-yl)ethoxy)phenyl)-9-(2-chlorobenzyl)-6-(1-methylcyclopropoxy)-9H-purine]
3.16	CC1(Oc2ncnc3c2nc(-c2ccc(OCCN4CCNC(=O)C4)cc2Cl)n3Cc2ccccc2)CC1 [Example D15, 4-(2-(4-(9-benzyl-6-(1-methylcyclopropoxy)-9H-purin-8-yl)-3-chlorophenoxy)ethyl)piperazin-2-one]
7.94	COc1cc(-c2nc3c(OC4(C)CC4)ncnc3n2Cc2ccccc2)c(Cl)cc1OCCN1CCNCC1 [Example J2, 9-benzyl-8-(2-chloro-5-methoxy-4-(2-(piperazin-1-yl)ethoxy)phenyl)-6-(1-methylcyclopropoxy)-9H-purine]
5.01	CC1(Oc2ncnc3c2nc(-c2ccc(O[C@H]4CC[C@@H](C(=O)O)CC4)cc2Cl)n3Cc2cc(Cl)ccc2F)CC1 [Example U44, (1s,4s)-4-(3-chloro-4-(9-(5-chloro-2-fluorobenzyl)-6-(1-methylcyclopropoxy)-9H-purin-8-yl)phenoxy)cyclohexane-1-carboxylic acid]
2	CC1(Oc2ncnc3c2nc(-c2ccc(OCCCN4CC(O)C4)cc2Cl)n3Cc2ccccc2)CC1 [Example H17, 1-(3-(4-(9-benzyl-6-(1-methylcyclopropoxy)-9H-purin-8-yl)-3-chlorophenoxy)propyl)azetidin-3-ol]
6.31	COc1ccc(Cl)cc1Cn1c(-c2ccc(OCC[C@@H](C)C(=O)O)cc2Cl)nc2c(OC3(C)CC3)ncnc21 [Example 47, (R)-4-(3-chloro-4-(9-(5-chloro-2-methoxybenzyl)-6-(1-methylcyclopropoxy)-9H-purin-8-yl)phenoxy)-2-methylbutanoic acid]
5.01	CC1(Oc2ncnc3c2nc(-c2ccc(OCCC(=O)O)cc2Cl)n3Cc2ccccc2)CC1 [Example H11, 3-(4-(9-benzyl-6-(1-methylcyclopropoxy)-9H-purin-8-yl)-3-chlorophenoxy)propanoic acid]
7.94	Cc1cccc(Cn2c(-c3ccc(OCCN4CCNCC4)cc3Cl)nc3c(OC4(C)CC4)ncnc32)n1 [Example K7, 8-(2-chloro-4-(2-(piperazin-1-yl)ethoxy)phenyl)-6-(1-methylcyclopropoxy)-9-((6-methylpyridin-2-yl)methyl)-9H-purine]
2	CC1(Oc2ncnc3c2nc(-c2ccc(OCCN4CCNC5(CC5)C4)cc2Cl)n3Cc2ccccc2)CC1 [Example R17, 8-(4-(2-(4,7-diazaspiro[2.5]octan-7-yl)ethoxy)-2-chlorophenyl)-9-benzyl-6-(1-methylcyclopropoxy)-9H-purine]
2.51	CC1(Oc2ncnc3c2nc(-c2ccc(OCCN4CCN[C@@H](CC#N)C4)cc2Cl)n3Cc2ccccc2)CC1 [Example R23, (S)-2-(4-(2-(4-(9-benzyl-6-(1-methylcyclopropoxy)-9H-purin-8-yl)-3-chlorophenoxy)ethyl)piperazin-2-yl)acetonitrile]
2	Clc1cccc(Cn2c(-c3ccc(OCCN4CCNCC4)cc3Cl)nc3c(OC4CC4)ncnc32)c1 [Example Q4, 8-(2-chloro-4-(2-(piperazin-1-yl)ethoxy)phenyl)-9-(3-chlorobenzyl)-6-cyclopropoxy-9H-purine]
6.31	Cc1ccnc(Cn2c(-c3ccc(O[C@H]4C[C@@H](O)C4)cc3Cl)nc3c(OC4(C)CC4)ncnc32)c1 [Example T198, (1s,3s)-3-(3-chloro-4-(6-(1-methylcyclopropoxy)-9-((4-methylpyridin-2-yl)methyl)-9H-purin-8-yl)phenoxy)cyclobutan-1-ol]
3.16	N#CC1(Oc2ncnc3c2nc(-c2ccc(OCCN4CCNCC4)cc2Cl)n3Cc2ccccc2)CC1 [Example 13, 1-((9-Benzyl-8-(2-chloro-4-(2-(piperazin-1-yl)ethoxy)phenyl)-9H-purin-6-yl)oxy)cyclopropane-1-carbonitrile]
2	CC1(Oc2ncnc3c2nc(-c2ccc(OCCN4C[C@@H]5C[C@H]4CN5)cc2Cl)n3Cc2ccccc2)CC1 [Example R19, 8-(4-(2-((1S,4S)-2,5-diazabicyclo[2.2.1]heptan-2-yl)ethoxy)-2-chlorophenyl)-9-benzyl-6-(1-methylcyclopropoxy)-9H-purine]

Compound	IC50 [nM]
C#CC1(Oc2ncnc3c2nc(-c2ccc(OCCN4CCNCC4)cc2Cl)n3Cc2ccccc2)CCC1 [Example Q3, 9-benzyl-8-(2-chloro-4-(2-(piperazin-1-yl)ethoxy)phenyl)-6-(1-ethynylcyclobutoxy)-9H-purine]	3.16
